Source: ChEMBL document CHEMBL3868608, “Discovery of 1,3-diethyl-7-methyl-8-(phenoxymethyl)-xanthine derivatives as novel adenosine A1 and A2A receptor antagonists” (Bioorg Med Chem Lett, 2016)

Test system: brain
Test: Selectivity index, ratio of Ki for adenosine receptor A2A in Sprague-Dawley rat striatal membranes to Ki for adenosine receptor A1 in Sprague-Dawley rat whole brain cell membranes
Format: cell-based

SMILES: CCn1c(=O)c2c(nc(COc3ccc(Br)cc3)n2C)n(CC)c1=O
- Ratio Ki: 5.2

SMILES: CCn1c(=O)c2c(nc(COc3ccc(OC)cc3)n2C)n(CC)c1=O
- Ratio Ki: 0.2
